# Assay results from ChEMBL document CHEMBL1127843, “2-(3,4-Dichlorophenyl)-N-methyl-N-[(1S)-1-(3-isothiocyanatophenyl)-2-(1-pyrrolidinyl)ethyl]acetamide: an opioid receptor affinity label that produces selective and long-lasting kappa antagonism in mice” (J Med Chem, 1994).
# Chains of the proteins cited; added tags and fusions are not shown.
# UniProt P32300, whole entry: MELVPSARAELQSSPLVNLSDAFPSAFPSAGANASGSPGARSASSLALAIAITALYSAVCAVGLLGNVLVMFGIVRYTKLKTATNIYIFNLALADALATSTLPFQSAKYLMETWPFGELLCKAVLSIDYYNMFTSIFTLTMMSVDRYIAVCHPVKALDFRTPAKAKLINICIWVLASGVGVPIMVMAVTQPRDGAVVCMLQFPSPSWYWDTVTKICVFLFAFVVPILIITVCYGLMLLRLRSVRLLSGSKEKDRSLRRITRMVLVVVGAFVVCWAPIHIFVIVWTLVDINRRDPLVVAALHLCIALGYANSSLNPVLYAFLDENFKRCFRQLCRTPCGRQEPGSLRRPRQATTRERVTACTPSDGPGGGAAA
# UniProt P42866, whole entry: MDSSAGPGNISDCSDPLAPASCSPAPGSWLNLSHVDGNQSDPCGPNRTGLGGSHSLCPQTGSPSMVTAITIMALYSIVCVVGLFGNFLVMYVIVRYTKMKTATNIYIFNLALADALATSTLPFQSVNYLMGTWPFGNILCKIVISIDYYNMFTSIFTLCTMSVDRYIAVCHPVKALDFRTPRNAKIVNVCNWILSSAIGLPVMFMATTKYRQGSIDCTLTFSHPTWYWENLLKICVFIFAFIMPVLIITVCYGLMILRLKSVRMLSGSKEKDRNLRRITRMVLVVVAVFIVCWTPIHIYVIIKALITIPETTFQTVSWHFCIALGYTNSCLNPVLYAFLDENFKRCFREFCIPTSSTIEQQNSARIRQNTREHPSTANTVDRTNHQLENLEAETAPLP
# UniProt P41144, whole entry: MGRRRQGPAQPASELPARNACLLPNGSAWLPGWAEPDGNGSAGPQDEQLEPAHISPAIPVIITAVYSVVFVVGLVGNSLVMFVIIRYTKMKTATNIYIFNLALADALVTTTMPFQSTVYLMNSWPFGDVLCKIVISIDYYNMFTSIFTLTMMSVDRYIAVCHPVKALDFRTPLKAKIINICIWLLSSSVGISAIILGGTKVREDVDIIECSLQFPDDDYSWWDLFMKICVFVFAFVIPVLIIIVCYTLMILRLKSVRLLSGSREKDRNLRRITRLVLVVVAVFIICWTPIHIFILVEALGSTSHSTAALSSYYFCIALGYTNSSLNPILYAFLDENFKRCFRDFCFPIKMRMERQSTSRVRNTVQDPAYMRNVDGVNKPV
# UniProt P33534, whole entry: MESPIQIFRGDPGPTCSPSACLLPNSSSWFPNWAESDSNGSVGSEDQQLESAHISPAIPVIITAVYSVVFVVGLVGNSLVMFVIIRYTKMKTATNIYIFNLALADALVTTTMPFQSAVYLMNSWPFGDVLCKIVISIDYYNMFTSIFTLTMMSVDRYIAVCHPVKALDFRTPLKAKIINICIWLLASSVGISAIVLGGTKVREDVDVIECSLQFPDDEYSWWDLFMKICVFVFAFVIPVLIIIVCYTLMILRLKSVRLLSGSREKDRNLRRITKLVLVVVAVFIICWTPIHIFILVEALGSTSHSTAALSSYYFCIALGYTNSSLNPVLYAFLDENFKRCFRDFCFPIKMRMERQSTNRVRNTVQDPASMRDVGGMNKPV
# How the values were obtained:
# [1] = molecular target: Delta-type opioid receptor (Mus musculus) (UniProt P32300); assay: Ratio of ED50 of compound to delta opioid receptor antagonist naltrindole (NTI) at 44.44 umol/kg administarted sc
# [2] = molecular target: Mu-type opioid receptor (Mus musculus) (UniProt P42866); assay: Ratio of ED50 of compound to mu opioid receptor antagonist beta-funaltrexamine (FMN) at 10.18 umol/kg administarted sc
# [3] = molecular target: Kappa-type opioid receptor (Cavia porcellus) (UniProt P41144); assay: Agonist potency of compound was evaluated towards kappa opioid receptor in absence of antagonist in guinea pig ileum(GPI)
# [4] = molecular target: Kappa-type opioid receptor (Mus musculus) (UniProt P33534); assay: Ratio of ED50 of compound to kappa opioid receptor antagonist norbinaltorphimine (nor-BNI) at conc. of 12.25 umol/kg administarted sc
structure (smiles),measurement,setting,value
CN(C(=O)Cc1ccc(Cl)c(Cl)c1)[C@H](CN1CCCC1)c1ccccc1,Ratio,[1],1.19
same,Ratio,[2],1.72
same,Ke,[3],0.05 nM
same,Ratio,[4],2.31
